# Yeast mating assay 2: variants of the scFv Ab-95

Data: MIT Lincoln Laboratory AlphaSeq set, Engelhart et al. 2022, doi:10.1038/s41597-022-01779-4, as distributed in FLAb.

Binding partner: SARS-CoV-2 spike HR2 peptide, sequence PDVDLGDISGINAS.

Parent scFv Ab-95: VH joined to VL by a 15-residue (Gly4Ser)3 linker. Changes lie in the light chain CDRs alone.
VH: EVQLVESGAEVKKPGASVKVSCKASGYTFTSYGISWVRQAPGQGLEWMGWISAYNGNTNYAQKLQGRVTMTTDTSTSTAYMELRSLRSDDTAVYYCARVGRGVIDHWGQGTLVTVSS
VL: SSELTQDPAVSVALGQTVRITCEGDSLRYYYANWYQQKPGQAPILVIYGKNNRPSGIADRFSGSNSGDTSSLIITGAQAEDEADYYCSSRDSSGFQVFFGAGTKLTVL

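Phage display of a naive human antibody library on the peptide gave the parent. AAYL52 was designed without a model: most single CDR substitutions and a random sample of double and triple ones. The assay is AlphaSeq: two haploid yeast populations carry antibody and antigen on their surface. Pairs that bind mate more often; barcode pairs of the diploids are counted by sequencing. Read counts were normalised to the haploid input and turned into Kd by a linear fit to BCL2-family pairs of known affinity, for each replicate. There are three technical replicates.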

The whole VL of each variant is written out. Affinities are written as log10 Kd with Kd in nM; a lower number is a better binder. The mean shown is taken over the replicates in which the pair was detected. A pair that was not seen in any replicate is written "nd"; this usually means weak binding, but a binder can also be missed. Empty control strains, which show no peptide, gave a signal in 28% of pairings with library AAYL52; the median was 3.91 and 95% of these signals were weaker than 2.90. No background was subtracted.

mean log10 Kd (nM)	replicates with signal	VL
2.90	2 of 3	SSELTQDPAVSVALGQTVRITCEGWSLVYYYANWYQQKPGQAPILVIYGKNNRPSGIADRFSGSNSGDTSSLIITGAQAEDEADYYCSGRDSSGFQVFFGAGTKLTVL
3.03	3 of 3	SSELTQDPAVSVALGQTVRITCEGDSLRYAYLNWYQQKPGQAPILVIYGKNNRPSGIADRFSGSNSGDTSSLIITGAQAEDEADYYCSSRDSSGCQVFFGAGTKLTVL
3.58	1 of 3	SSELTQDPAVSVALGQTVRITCEGDSLRYYYENWYQQKPGQAPILVIYGKNNRPSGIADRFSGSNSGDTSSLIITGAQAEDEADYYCSSRDSSGNQVCFGAGTKLTVL
2.92	3 of 3	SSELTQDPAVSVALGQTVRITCEGDQLRYYQANWYQQKPGQAPILVIYGKNNRPSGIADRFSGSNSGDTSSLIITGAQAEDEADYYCSSRDSSGFVVFFGAGTKLTVL
3.18	3 of 3	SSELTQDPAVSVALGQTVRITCVGDSLGYYYANWYQQKPGQAPILVIYGKNNTPSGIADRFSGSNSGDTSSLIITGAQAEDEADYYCSSRDSSGFQVFFGAGTKLTVL
2.55	3 of 3	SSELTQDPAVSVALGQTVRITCEGDGLRYYYANWYQQKPGQAPILVIYGKNNRPSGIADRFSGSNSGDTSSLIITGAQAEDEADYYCSSRDSSGFQFRFGAGTKLTVL
1.27	3 of 3	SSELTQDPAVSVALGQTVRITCEGDSLRYNIANWYQQKPGQAPILVIYGKNNRPSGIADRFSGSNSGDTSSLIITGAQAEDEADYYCSSRDSSGFQVFFGAGTKLTVL
2.97	3 of 3	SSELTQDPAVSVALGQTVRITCEHDSLRYYYANWYQQKPGQAPILVIYGANNRPSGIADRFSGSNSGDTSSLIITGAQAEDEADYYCSSRDSGGFQVFFGAGTKLTVL
3.89	1 of 3	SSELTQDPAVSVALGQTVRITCEGDSLRYYYANWYQQKPGQAPILVIYMKNNRPSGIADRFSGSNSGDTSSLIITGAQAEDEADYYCSSRDLSGFPVFFGAGTKLTVL
2.94	3 of 3	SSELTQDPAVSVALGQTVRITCEGDSCRYYYANWYQQKPGQAPILVIYGKNNRPSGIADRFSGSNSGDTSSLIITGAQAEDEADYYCTSRDSSGFQNFFGAGTKLTVL
2.29	3 of 3	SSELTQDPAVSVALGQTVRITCEGDSLRYYYANWYQQKPGQAPILVIYGKNNRPVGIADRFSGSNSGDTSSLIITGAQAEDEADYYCSSNDSSGFQVFFGAGTKLTVL
2.72	3 of 3	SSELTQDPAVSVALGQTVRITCEGFSLRYSYANWYQQKPGQAPILVIYGKNNRWSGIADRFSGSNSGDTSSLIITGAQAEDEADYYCSSRDSSGFQVFFGAGTKLTVL
nd	0 of 3	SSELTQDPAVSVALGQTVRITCEGDSLRYYYMNWYQQKPGQAPILVIYGKRNRPSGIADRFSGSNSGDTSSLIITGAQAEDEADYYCSSRDSSGFQVFFGAGTKLTVL
2.58	1 of 3	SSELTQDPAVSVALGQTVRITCEGDSLRIYAANWYQQKPGQAPILVIYGKNNRPSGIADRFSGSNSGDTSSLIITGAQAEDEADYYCSSRDSSKFQVFFGAGTKLTVL
3.49	3 of 3	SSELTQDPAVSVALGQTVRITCEGDALRVYYANWYQQKPGQAPILVIYGKNNRPSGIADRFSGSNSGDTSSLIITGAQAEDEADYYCSSRCSSGFQVFFGAGTKLTVL
2.96	3 of 3	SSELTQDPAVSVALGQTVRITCEGDSLLYYYANWYQQKPGQAPILVIYGKNQRPSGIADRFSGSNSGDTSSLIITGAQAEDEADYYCSSRWSSGFQVFFGAGTKLTVL
2.35	3 of 3	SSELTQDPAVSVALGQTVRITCEGDSLRYYYANWYQQKPGQAPILVIYGKNNAPSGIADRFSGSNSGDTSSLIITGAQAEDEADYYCSSRDSSGFHVVFGAGTKLTVL
3.59	3 of 3	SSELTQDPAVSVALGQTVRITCEGDSLRYYYANWYQQKPGQAPILVIYTKNNKPSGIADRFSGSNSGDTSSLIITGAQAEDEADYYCSSRDSSGFQVFFGAGTKLTVL
3.34	3 of 3	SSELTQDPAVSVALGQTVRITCEGDSLRYYYANWYQQKPGQAPILVIYGKQNRPSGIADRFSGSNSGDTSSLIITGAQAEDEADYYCDSRDSSGFQVFFGAGTKLTVL
4.26	3 of 3	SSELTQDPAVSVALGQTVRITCEGDSLRYVYANWYQQKPGQAPILVIYGKNNRPSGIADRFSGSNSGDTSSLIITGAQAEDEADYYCSSSRSSGFQVFFGAGTKLTVL
3.78	2 of 3	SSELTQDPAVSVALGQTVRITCEGDSLRYYYAQWYQQKPGQAPILVIYGKNNRPSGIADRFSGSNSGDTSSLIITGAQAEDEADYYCSSYCSSGFQVFFGAGTKLTVL
3.91	3 of 3	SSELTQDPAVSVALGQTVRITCEGDATRYYYANWYQQKPGQAPILVIYGKNNRNSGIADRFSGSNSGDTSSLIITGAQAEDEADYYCSSRDSSGFQVFFGAGTKLTVL
3.81	2 of 3	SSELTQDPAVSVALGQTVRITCEGDSLRYYYANWYQQKPGQAPILVIYGKNLRPSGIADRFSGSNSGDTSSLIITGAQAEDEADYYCSSRDWSGFQVWFGAGTKLTVL
4.02	2 of 3	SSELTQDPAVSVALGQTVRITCEGDSLRYYYANWYQQKPGQAPILVIYGKNNDHSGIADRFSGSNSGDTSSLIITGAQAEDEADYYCSSRDSRGFQVFFGAGTKLTVL
4.10	1 of 3	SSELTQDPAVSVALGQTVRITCEGTSLRYYYANWYQQKPGQAPILVIYGKNNYPSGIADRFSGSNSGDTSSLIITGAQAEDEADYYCSSRDSSKFQVFFGAGTKLTVL
3.84	3 of 3	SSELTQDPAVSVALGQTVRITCEGDSLRYYYANWYQQKPGQAPILVIYGKNNTPSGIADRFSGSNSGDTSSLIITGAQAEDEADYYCSSRPSSGFQHFFGAGTKLTVL

Extract of 2 entries:

VL	mean log10 Kd (nM)	replicates with signal
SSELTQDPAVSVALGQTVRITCEGFSLRYSYANWYQQKPGQAPILVIYGKNNRWSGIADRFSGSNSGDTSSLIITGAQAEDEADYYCSSRDSSGFQVFFGAGTKLTVL	2.72	3 of 3
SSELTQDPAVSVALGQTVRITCEGDATRYYYANWYQQKPGQAPILVIYGKNNRNSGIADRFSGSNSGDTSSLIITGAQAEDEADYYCSSRDSSGFQVFFGAGTKLTVL	3.91	3 of 3